# From PubChem BioAssay AID924 (National Center for Advancing Translational Sciences (NCATS), 2007)
# The list shows a part of the results, in another mix than the full data. Inconclusive results are not listed. Active and inactive are the calls of the source. The call rests on the fitted dose curve; in most records, active means well fitted cell-killing curve with a large enough effect; inconclusive means small, poorly fitted or top-dose-only effect; inactive means no such curve, though single readings can be large or run the other way.
# Experiment: qHTS Screen for Compounds that Selectively Target Cancer Cells with p53 Mutations: Cytotoxicity of p53ts Cells at the Permissive Temperature;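 further: 0% = DMSO and -100% = full killing by reference compound; nearly all actives have a fitted effect of over 55% in size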
# Settings: H1299-p53A138V at 32C, ATP luminescence viability, 24 h; at 46.1 µM (top of the series) unless noted
row,SMILES,"activity change, negative = cytotoxicity"
1,Cc1nc2ccc3ccccc3c2s1.O=[N+]([O-])c1cc([N+](=O)[O-])c(O)c([N+](=O)[O-])c1,inactive: -4.41%
2,Cc1ccc([N+](=O)[O-])cc1[N+](=O)[O-],inactive: -2.14% [at 1.84 µM]
3,Cc1ccc(C)c(NP(C)(=O)Oc2ccccc2)c1 (stereo not given),inactive: 1.45%
4,Cc1ccc(NP(C)(=O)Oc2ccccc2)c(C)c1 (stereo not given),inactive: 9.54%
5,COc1ccccc1OP(C)(=O)Nc1ccc(C)cc1 (stereo not given),inactive: 10.2%
6,CP(=S)(Nn1cnnc1)Oc1ccccc1 (stereo not given),inactive: 2.59%
7,N1=C(c2nnc(-c3nn[nH]n3)nn2)NNN1,inactive: 2.42% [at 9.22 µM]
8,CCOP(C)(=S)SCC(=O)NC(C)C(=O)O (stereo not given),inactive: 2.97%
9,Cc1cc(C)cc(OP(C)(=O)Nc2ccc(SC(F)(F)F)cc2)c1 (stereo not given),inactive: -12.7%
10,CP(=O)(NC(=O)Nc1ccccc1)Oc1ccccc1 (stereo not given),inactive: -13.6%
11,Cc1cccc(C)c1OP(C)(=O)Nc1ccc(SC(F)(F)F)cc1 (stereo not given),inactive: -20.9%
12,OCCSCCO,inactive: -12.6%
13,COc1ccccc1OP(C)(=O)Nc1c(C)n(C)n(-c2ccccc2)c1=O (stereo not given),inactive: 0.15%
14,CP(=O)(Oc1ccccc1)N1CCOC1=O (stereo not given),inactive: -1.57%
15,N#[O+].[C-]#N.[C-]#N.[C-]#N.[C-]#N.[C-]#N.[Fe+2].[Na+].[Na+],inactive: 13%
16,COc1ccccc1OP(C)(=O)Nc1ccc(C)c(C)c1 (stereo not given),inactive: 4.95%
17,CP(=O)(Nc1ccccn1)Oc1ccccc1 (stereo not given),inactive: -1.39%
18,CP(=O)(Nc1ccccc1F)Oc1ccccc1 (stereo not given),inactive: 3.87%
19,CCN(CC)CCCOC(=O)C(O)(c1ccccc1)C1CCCCC1 (stereo not given),inactive: 3.95%
20,Cc1cccc([N+](=O)[O-])c1[N+](=O)[O-],inactive: 11% [at 1.84 µM]
21,CCC(C)(OO)OOC(C)(CC)OO (stereo not given),inactive: 2.88% [at 1.84 µM]
22,Cc1ccc([N+](=O)[O-])c([N+](=O)[O-])c1,inactive: -2.1% [at 1.84 µM]
23,Cc1c([N+](=O)[O-])cccc1[N+](=O)[O-],inactive: 10.2% [at 1.84 µM]
24,CN(C)CCOC(=O)C(O)(c1ccccc1)C1CCCCC1 (stereo not given),inactive: 2.7%
25,Cc1ccccc1NP(C)(=O)Nc1ccccc1C,inactive: 6.11%
26,CCN(CCCl)Cc1ccccc1C,inactive: 4.23%
27,NNC(NN)NN.n1nc(-c2nn[nH]n2)n[nH]1,inactive: -1.46% [at 9.22 µM]
28,CP(=O)(Nc1ccc2c(c1)OCCO2)Oc1ccccc1 (stereo not given),inactive: 5.97%
29,CCOP(C)(=S)SCC(=O)NC(C)(CC)C(=O)O (stereo not given),inactive: 10%
30,CCOP(=O)(CC)OCC,inactive: -15.3% [at 1.84 µM]
